The data set is described as follows: Release of HSA and IFN from precipitates in PBS/0.01% thimerosal at 37° C. (Bio-Rad Protein Assay, ELISA). Format: physicochemical. Conditions: HSA/IFN-α012 precipitate, 40% n-propanol, pH 5.52, pH 6.13 and pH 6.31. The method, then: Protein precipitation. Proteins were precipitated at ambient temperature (about 24° C.) by one of two basic procedures: the organic addition method or the acid addition method. With the organic addition method, the protein solution was prepared in aqueous solution and an organic component added to precipitate the protein. […] Precipitation was initiated by adding an acidified solution concurrent with or after addition of organic components to the protein solution. Unless otherwise stated in the legends, deionized water was used to dilute formulation reagents. HSA stock solutions were made by diluting 25% source material to 1% final concentration, and data presented were obtained using Immuno-U.S. Human Serum Albumin.
Adjustment of pH. Because organic solvent hinders the ability to accurately measure pH, the pH specified for any formulation refers to the pH of the (aqueous) solution prior to addition of the organic component. In the case of the organic addition method, the pH of an aqueous protein solution was adjusted to the desired pH just prior to adding the organic component. […]
Wash procedures. […] If the release experiment was to begin immediately, the last harvested wash sample was labeled as the zero time sample and the resuspended preparations placed in an incubator at 37 ° C. at which temperature release was measured for all samples. […]
(In general: In an ELISA, binding on a coated surface is turned into a signal by an enzyme label.)

For the substance “HSA: Human serum albumin, carrier protein precipitated with organic solvent”, the overall burst result is “minimal”.

For the origin of these results see patent US20030017169A1, “Controlled release systems for polymers” (priority 2000, published 2003).
